Test results taken from PubChem BioAssay (Tox21).
Values joined by “and” are separate entries in the source; they are usually repeats but may differ in a detail not shown here. Equal entries are not always repeated. This is a selection; strong and weak results do not stand in their true shares. Results filed as inconclusive are left out. Active and inactive are the calls of the source. Unless noted, the call rests on the fitted dose curve; in most records, active means well fitted curve in the direction sought with a large enough effect in the repeat runs; inconclusive means weak or mixed curves; inactive means no such curve, though single readings can be large; an effect the other way counts as inactive or inconclusive.

Chains of the proteins cited; added tags and fusions are not shown.
UniProt Q14994, whole entry: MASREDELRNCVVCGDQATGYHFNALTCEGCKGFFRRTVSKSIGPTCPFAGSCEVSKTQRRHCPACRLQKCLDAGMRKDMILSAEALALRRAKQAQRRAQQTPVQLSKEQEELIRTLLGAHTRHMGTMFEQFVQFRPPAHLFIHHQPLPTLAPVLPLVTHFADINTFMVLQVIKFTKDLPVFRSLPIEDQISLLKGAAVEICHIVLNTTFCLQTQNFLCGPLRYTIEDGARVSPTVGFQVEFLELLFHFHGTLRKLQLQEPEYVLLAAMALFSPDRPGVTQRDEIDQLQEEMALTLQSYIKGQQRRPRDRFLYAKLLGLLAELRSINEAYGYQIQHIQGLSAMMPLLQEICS
UniProt P16473, whole entry: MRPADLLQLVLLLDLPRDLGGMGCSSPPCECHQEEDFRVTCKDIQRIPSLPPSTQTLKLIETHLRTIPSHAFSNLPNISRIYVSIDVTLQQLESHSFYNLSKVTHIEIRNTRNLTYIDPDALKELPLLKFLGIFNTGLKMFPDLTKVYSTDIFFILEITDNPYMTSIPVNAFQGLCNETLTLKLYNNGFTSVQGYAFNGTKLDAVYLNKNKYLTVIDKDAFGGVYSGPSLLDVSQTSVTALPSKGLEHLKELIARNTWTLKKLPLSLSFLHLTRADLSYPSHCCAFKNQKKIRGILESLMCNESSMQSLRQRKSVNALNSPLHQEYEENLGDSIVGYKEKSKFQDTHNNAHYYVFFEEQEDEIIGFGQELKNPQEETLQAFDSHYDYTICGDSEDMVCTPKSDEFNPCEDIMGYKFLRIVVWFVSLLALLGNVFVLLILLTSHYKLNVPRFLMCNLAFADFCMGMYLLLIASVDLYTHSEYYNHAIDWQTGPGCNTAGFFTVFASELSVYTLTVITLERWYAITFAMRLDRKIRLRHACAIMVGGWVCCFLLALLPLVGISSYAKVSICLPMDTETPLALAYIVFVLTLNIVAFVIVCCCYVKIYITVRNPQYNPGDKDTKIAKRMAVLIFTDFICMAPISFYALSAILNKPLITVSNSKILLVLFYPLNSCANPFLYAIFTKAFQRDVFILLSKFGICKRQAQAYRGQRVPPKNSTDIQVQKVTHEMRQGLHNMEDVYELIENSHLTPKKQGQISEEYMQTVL

Legend:
[1] = molecular target: Nuclear receptor subfamily 1 group I member 3 (Homo sapiens) (UniProt Q14994); assay: qHTS assay to identify small molecule agonists of the constitutive androstane receptor (CAR) signaling pathway (AID 1224839); conditions: HepG2 hCAR CYP2B6-luciferase, agonist mode, 24 h; series mostly up to 92.4 µM; further: nearly all actives have a fitted effect of over 15% in size; further: potency means the concentration at half of the fitted maximal effect;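 on activation: HepG2 cells stably carrying human CAR and a CYP2B6 luciferase reporter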
[2] = qHTS assay to identify small molecule antagonists of the estrogen related receptor signaling pathway with the pleiotropic PPARgamma coactivator (PGC) from Tox21 10K library - cell viability counter screen (AID 1224840; active means well fitted cell-killing curve with a large enough effect in the repeat runs, not every such curve was filed as active; further: nearly all actives have a fitted effect of over 40% in size); conditions: PGC/ERR reporter cells viability, CellTiter-Fluor, 17.5 h
How it was run: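 Fluorescence read-out of CellTiter-Fluor viability reagent, added after cells had been exposed to compound in DMSO for 17.5 h at 37 C; 30 min development at 37 C/5% CO2. Cells: PGC/ERR line, 2,000/well.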

[3] = molecular target: Thyrotropin receptor (Homo sapiens) (UniProt P16473); assay: qHTS assay to identify small molecule agonists of the thyroid stimulating hormone receptor (TSHR) signaling pathway (AID 1224843; calls by dose curve; further: nearly all actives have a fitted effect of over 45% in size); conditions: TSHR-HEK293 cells, cAMP HTRF, agonist mode, 30 min
[4] = qHTS assay to identify small molecule agonists of the hypoxia (HIF-1) signaling pathway - cell viability counter screen (AID 1224844; calls by dose curve; further: nearly all actives have a fitted effect of over 50% in size); conditions: HRE-bla ME-180 viability, CellTiter-Glo luminescence, 17 h; at 76.8 µM (top of the series) unless noted
How it was run: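 CellTiter-Glo luminescence read-out, 30 min RT, taken in the same wells as the beta-lactamase HRE reporter assay; HRE-bla ME-180 cells, 0.5% dialyzed FBS, 17 hr compound treatment at 37C, 5% CO2.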

[5] = qHTS assay to identify small molecule agonists of H2AX (AID 1224845; active means well fitted activation curve with a large enough effect in the signal ratio in the repeat runs, not every such curve was filed as active; the % refers to the signal ratio); conditions: CHO-K1 phospho-H2AX Ser139 HTRF, 3 h
How it was run: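 Wild-type CHO-K1 cells, plated overnight, exposed 3hr at 37C to 15 concentrations (0.76% DMSO final). Lysed, then HTRF anti-pH2AX (S139) cryptate and anti-H2AX-d2 antibodies, 24 hr room temperature; 665/620 nm emission read.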

[6] = qHTS assay to identify small molecule agonists of the hypoxia (HIF-1) signaling pathway (AID 1224846; active means well fitted activation curve with a large enough effect in the signal ratio in the repeat runs, not every such curve was filed as active; the % refers to the signal ratio); conditions: HRE-bla ME-180 cells, beta-lactamase ratio, 17 h
How it was run: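 Beta-lactamase FRET read-out (CCF4-AM substrate) from ME-180 cells carrying an HRE-driven bla reporter, after 17 hrs compound exposure at 37C/5% CO2. Cells were seeded at 2,000 per well in 0.5% dialyzed FBS medium and preincubated 5 hrs.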

[7] = qHTS assay to identify small molecule agonists of the estrogen related receptor (ERR) signaling pathway from Tox21 library (AID 1224849; calls by dose curve; further: nearly all actives have a fitted effect of over 15% in size); conditions: ERR reporter cell line, ONE-Glo luciferase, 18 h
How it was run: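 Luminescence readout (ONE-Glo, 30 min RT) after 18 h compound exposure at 37 C of NTP-supplied ERR reporter cells; cells were plated 6 h before compound addition by pin tool.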

[8] = A CellTox Green Cytotoxicity Assay to monitor cytotoxicity in HEK293 cells - 0 hour (AID 1224869); conditions: CellTox Green fluorescence; series mostly up to 76.8 µM; further: nearly all actives have a fitted effect of over 50% in size; further: potency means the concentration at half of the fitted maximal effect
How it was run: (§1)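 Read-out: fluorescence of a cell-impermeant cyanine dye staining DNA of dead cells, proportional to cytotoxicity. HEK293, 600 cells/well with reagent, compound (23 nL DMSO) added after 5 h; reads at 0, 8, 16, 24, 32, 40 h.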

[9] = qHTS RealTime-Glo MT Cell Viability Assay in HepG2 cells - 40 hour (AID 1224870); conditions: RealTime-Glo luminescence; at 76.8 µM (top of the series) unless noted; further: nearly all actives have a fitted effect of over 50% in size
How it was run: (§2)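 HepG2 cells (600/well) mixed with RealTime-Glo MT reagent, settled 5 h at 37 C/5% CO2 before compound addition. Nonlytic NanoLuc luminescence from viable-cell prosubstrate reduction read repeatedly during 40 h treatment at 37 C.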

[10] = qHTS RealTime-Glo MT Cell Viability Assay in HepG2 cells - 8 hour (AID 1224873); conditions: RealTime-Glo luminescence; at 76.8 µM (top of the series) unless noted; further: nearly all actives have a fitted effect of over 55% in size
How it was run: as §2

[11] = A CellTox Green Cytotoxicity Assay to monitor cytotoxicity in HepG2 cells - 16 hour (AID 1224876); conditions: CellTox Green fluorescence; series mostly up to 76.8 µM; further: nearly all actives have a fitted effect of over 45% in size
How it was run: (§3)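 HepG2, 600 cells/well premixed w/ CellTox Green; 5 h settle, 37 C/5% CO2; pintool cpd add (DMSO); 37 C, 40 h; fluorescence read at 0, 8, 16, 24, 32, 40 h.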

[12] = qHTS RealTime-Glo MT Cell Viability Assay in HepG2 cells - 32 hour (AID 1224877); conditions: RealTime-Glo luminescence; further: nearly all actives have a fitted effect of over 55% in size
How it was run: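 Cell number in HepG2 cultures estimated from NanoLuc luminescence generated by metabolic reduction of a prosubstrate by living cells. The homogeneous, nonlytic format allowed repeated reads at 0, 8, 16, 24, 32 and 40 h of compound exposure.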

[13] = A CellTox Green Cytotoxicity Assay to monitor cytotoxicity in HepG2 cells - 24 hour (AID 1224878); conditions: CellTox Green fluorescence; series mostly up to 76.8 µM; further: nearly all actives have a fitted effect of over 45% in size; further: potency means the concentration at half of the fitted maximal effect
How it was run: as §3

[14] = A CellTox Green Cytotoxicity Assay to monitor cytotoxicity in HepG2 cells - 40 hour (AID 1224879); conditions: CellTox Green fluorescence; series mostly up to 76.8 µM; further: nearly all actives have a fitted effect of over 40% in size; further: potency means the concentration at half of the fitted maximal effect
How it was run: as §3

[15] = A CellTox Green Cytotoxicity Assay to monitor cytotoxicity in HEK293 cells - 32 hour (AID 1224881); conditions: CellTox Green fluorescence; series mostly up to 76.8 µM; further: nearly all actives have a fitted effect of over 40% in size
How it was run: as §1

[16] = qHTS assay to identify small molecule antagonists of the estrogen related receptor signaling pathway with the pleiotropic PPARgamma coactivator (PGC) from Tox21 10K library (AID 1224841; call rule not given here; further: actives are mostly falling curves and most rising ones were filed inactive; nearly all actives have a fitted effect of over 50% in size); conditions: PGC/ERR reporter cell line, ONE-Glo luciferase, 18 h; series mostly up to 92.4 µM
[17] = qHTS assay to identify small molecule antagonists of the estrogen related receptor (ERR) signaling pathway from Tox21 library (AID 1224848); conditions: ERR reporter cell line, luciferase antagonist mode, 18 h; series mostly up to 92.4 µM; further: nearly all actives have a fitted effect of over 50% in size
How it was run: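 Compounds dissolved in DMSO are pin-transferred onto ERR reporter cells (2,000 per well) that have settled for 6 h at 37 C. Plates then incubate 18 h at 37 C before ONE-Glo luciferase reagent and a luminescence read 30 min later.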

[18] = qHTS RealTime-Glo MT Cell Viability Assay in HEK293 cells - 32 hour (AID 1224868); conditions: RealTime-Glo luminescence, at 76.8 µM (top of the series)
How it was run: (§4)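 Homogeneous bioluminescent viability format in HEK293 cells (600 cells/well). Following 5 h at 37 C/5% CO2, 23 nL compound was pintooled; the signal was measured repeatedly during 40 h incubation.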

[19] = qHTS RealTime-Glo MT Cell Viability Assay in HEK293 cells - 16 hour (AID 1224872); conditions: RealTime-Glo luminescence; at 76.8 µM (top of the series) unless noted
How it was run: as §4

[20] = qHTS RealTime-Glo MT Cell Viability Assay in HEK293 cells - 0 hour (AID 1224880); conditions: RealTime-Glo luminescence; at 76.8 µM (top of the series) unless noted; further: top concentration of the series differs between compounds; nearly all actives have a fitted effect of over 45% in size
How it was run: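 Luminescence readout at each listed time point; HEK293, 600 cells/well, RealTime-Glo MT reagent added with cells; compounds pinned (23 nL in DMSO) after 5 h at 37 C; continuous culture at 37 C.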
On the % scale 0 is the no-effect control and ±100 the full control effect.

Cc1cccc([N+](=O)[O-])c1[N+](=O)[O-]
active: Potency [1] 18.3 µM | Potency [13] 26 µM | Potency [14] 32.7 µM
inactive: viability change, negative = cytotoxic ([2]; at 42.5 µM (top of the series)) -9.83% | activation ([3]; at 42.5 µM (top of the series)) 7.96% | activity change, negative = cytotoxicity [4] 15.4% [at 35.3 µM] | activation (H2AX phosphorylation) ([5]; at 70.9 µM (top of the series)) -0.664% | activation ([6]; at 35.5 µM (top of the series)) -1.11% | activity change, positive = activation ([7]; at 42.5 µM (top of the series)) -17.3% | Potency [8] | activity change, negative = cytotoxic [9] 0.765% [at 35.3 µM] | viability change, negative = cytotoxic [10] 4.8% [at 35.3 µM] | Potency [11] | activity change, negative = cytotoxic ([12]; at 35.3 µM (top of the series)) -7.42% | Potency [15]

O=[N+]([O-])OCC(CO[N+](=O)[O-])(CO[N+](=O)[O-])CO[N+](=O)[O-]
inactive: Potency [1] | viability change, negative = cytotoxic ([2]; at 92.4 µM (top of the series)) 5.79% | Potency [16] | activation ([3]; at 92.4 µM (top of the series)) -0.879% | activity change, negative = cytotoxicity [4] 4.91% | activation (H2AX phosphorylation) ([5]; at 154 µM (top of the series)) -1.15% | activation ([6]; at 76.8 µM (top of the series)) 0.0793% | Potency [17] | activity change, positive = activation ([7]; at 92.4 µM (top of the series)) -4.07% | activity change, negative = cytotoxic [18] -2.51% | Potency [8] | activity change, negative = cytotoxic [9] 0.488% | activity change, negative = cytotoxicity [19] -2.44% | viability change, negative = cytotoxic [10] 4.45% | Potency [11] | activity change, negative = cytotoxic ([12]; at 76.8 µM (top of the series)) -0.023% | Potency [13] | Potency [14] | activity change, negative = cytotoxicity [20] 5.93% | Potency [15]

O=[N+]([O-])c1cccc([N+](=O)[O-])c1
active: Potency [8] 45.5 µM | Potency [13] 22.8 µM | Potency [14] 22.8 µM
inactive: viability change, negative = cytotoxic ([2]; at 92.4 µM (top of the series)) 4.17% | Potency [16] | activation (H2AX phosphorylation) ([5]; at 154 µM (top of the series)) 2.84% | Potency [17] | viability change, negative = cytotoxic [10] -0.989% | activity change, negative = cytotoxic ([12]; at 76.8 µM (top of the series)) 10.5%

CP(=O)(O)OCCC[Si](O)(O)O
inactive: Potency [1] | viability change, negative = cytotoxic ([2]; at 92.4 µM (top of the series)) 14.6% | Potency [16] | activity change, negative = cytotoxicity [4] 0.47% | activation (H2AX phosphorylation) ([5]; at 154 µM (top of the series)) 0.0567% | activation ([6]; at 76.8 µM (top of the series)) -1.3% | Potency [17] | activity change, positive = activation ([7]; at 92.4 µM (top of the series)) 15.2% | activity change, negative = cytotoxic [18] -0.576% | Potency [8] | activity change, negative = cytotoxic [9] 0.212% | activity change, negative = cytotoxicity [19] -0.816% | viability change, negative = cytotoxic [10] 1.68% | Potency [11] | activity change, negative = cytotoxic ([12]; at 76.8 µM (top of the series)) 1.16% | Potency [13] | Potency [14] | activity change, negative = cytotoxicity [20] -4.35% | Potency [15]

N#CBr
inactive: Potency [1] | viability change, negative = cytotoxic ([2]; at 92.4 µM (top of the series)) 2.42% | activation ([3]; at 92.4 µM (top of the series)) 2.05% | activity change, negative = cytotoxicity [4] 7.17% | activation (H2AX phosphorylation) ([5]; at 154 µM (top of the series)) -0.562% | activation ([6]; at 76.8 µM (top of the series)) 0% | Potency [17] | activity change, positive = activation ([7]; at 92.4 µM (top of the series)) 0.168% | activity change, negative = cytotoxic [18] 13.2% | Potency [8] | activity change, negative = cytotoxic [9] 20.5% | activity change, negative = cytotoxicity [19] 11.4% | viability change, negative = cytotoxic [10] -8.41% | Potency [11] | activity change, negative = cytotoxic ([12]; at 76.8 µM (top of the series)) 9.62% | Potency [13] | Potency [14] | activity change, negative = cytotoxicity [20] 10.3% | Potency [15]

[NH4+].[O-][Cl+3]([O-])([O-])[O-]
inactive: viability change, negative = cytotoxic ([2]; at 92.4 µM (top of the series)) -1.03% and -7.77% | activity change, negative = cytotoxicity [4] 3.91% and 1.39% | activation (H2AX phosphorylation) ([5]; at 154 µM (top of the series)) -0.292% and -0.17% | activation ([6]; at 76.8 µM (top of the series)) -0.0415% and -0.822% | activity change, negative = cytotoxic [18] 0.662% and 1.04% | activity change, negative = cytotoxic [9] 1.1% and 12.7% | activity change, negative = cytotoxicity [19] -2.29% and -0.432% | Potency [11] | activity change, negative = cytotoxic ([12]; at 76.8 µM (top of the series)) 0.666% and 4.13% | Potency [13] | Potency [14] | activity change, negative = cytotoxicity [20] 1.4% and -2.28% | Potency [15]
